This is an account of results in ChEMBL document CHEMBL4806957, “Cdk8/cdk19 selective inhibitors and their use in anti-metastatic and chemopreventive methods for cancer” (2019).

By UniProt entry, the sequences of proteins in these tests, tags left out. Where a name states a change or a piece, a line headed by the entry shows the natural chain unless it says otherwise.
UniProt Q9BWU1: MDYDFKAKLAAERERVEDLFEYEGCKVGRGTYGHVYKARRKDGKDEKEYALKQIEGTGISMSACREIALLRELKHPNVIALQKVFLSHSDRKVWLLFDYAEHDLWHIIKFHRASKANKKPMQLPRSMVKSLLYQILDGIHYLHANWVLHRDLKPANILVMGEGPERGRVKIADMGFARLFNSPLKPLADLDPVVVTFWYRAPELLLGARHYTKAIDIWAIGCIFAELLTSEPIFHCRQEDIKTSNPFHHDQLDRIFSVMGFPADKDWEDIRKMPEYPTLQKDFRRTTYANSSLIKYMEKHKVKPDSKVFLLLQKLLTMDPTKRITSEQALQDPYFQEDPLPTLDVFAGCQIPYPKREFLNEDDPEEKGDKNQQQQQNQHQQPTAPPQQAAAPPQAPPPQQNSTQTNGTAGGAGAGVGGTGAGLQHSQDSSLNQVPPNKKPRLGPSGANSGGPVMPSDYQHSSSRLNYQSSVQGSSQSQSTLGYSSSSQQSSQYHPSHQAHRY

The assay deals with Cyclin-dependent kinase 19 (Homo sapiens, UniProt Q9BWU1). In words: Inhibition of CDK19 (unknown origin).

pKd: −log10 of the molar value.

Regarding `CN1CCN(C(=O)c2ccc3cc(CCNc4ncnc5ccc(C#N)cc45)ccc3c2)CC1` [SENEXIN B], the pKd was 7.10.

What is called pKd is −log10 of the Kd, conventionally taken in molar units. Low readings indicate a large Kd, high ones a small Kd.
